Data as given in publication PMC12480751, “A quantitative high-throughput screening pipeline to identify small molecule inhibitors of Chikungunya nsP2 protease” (Scientific Reports, 2025).

System: SNB19 cells
Test: CellTiter-Glo cell viability assay of SNB19 cells
Assay type: cell-based, human
Settings: read-out: CC50, SNB19 viability, 48 h

Oc1ccc(CNc2ccccc2F)c2cccnc12
CC50: 440 nM
